Tested on: P388 leukemia
Settings: mouse, in vivo

CC[C@@]1(O)C[C@H](O[C@H]2C[C@H](N3CCOCC3)[C@H](O)[C@H](C)O2)c2c(O)c3c(c(O)c2[C@H]1O)C(=O)c1cccc(O)c1C3=O [M-R20X2, 3'-deamino-3'-(4-morpholinyl)-13-deoxo-10-hydroxycarminomycin]
antitumor activity in comparison with M-R20X: remarkably high antitumor activity in comparison with 3'-deamino-3'-(4-morpholinyl)-13-deoxocarminomycin

Reference: patent US4877870A, “Process for producing 10-hydroxyanthracyclines” (Kirin Beer Kabushiki Kaisha, priority 1986, dated 1989)
